The numbers were not newly measured in article PMC3019532 (Current radiopharmaceuticals, 2010), which cites them from elsewhere.

For this data set the following is noted: rats; cited from earlier work.

Regarding “glucose-[^125I-Tyr^3]-octreotate [[^125I]Gluc-TOCA, reference compound]”, the “metabolism, form present in urine” value is listed as “extensive metabolism”.
